Results reported in ChEMBL document CHEMBL1145127 (J Med Chem, 2003).

Sequences of proteins named here, by UniProt entry; tags and fusion partners are left off. A change or cut given only in a name is not applied to a line headed by its entry.
UniProt P27815: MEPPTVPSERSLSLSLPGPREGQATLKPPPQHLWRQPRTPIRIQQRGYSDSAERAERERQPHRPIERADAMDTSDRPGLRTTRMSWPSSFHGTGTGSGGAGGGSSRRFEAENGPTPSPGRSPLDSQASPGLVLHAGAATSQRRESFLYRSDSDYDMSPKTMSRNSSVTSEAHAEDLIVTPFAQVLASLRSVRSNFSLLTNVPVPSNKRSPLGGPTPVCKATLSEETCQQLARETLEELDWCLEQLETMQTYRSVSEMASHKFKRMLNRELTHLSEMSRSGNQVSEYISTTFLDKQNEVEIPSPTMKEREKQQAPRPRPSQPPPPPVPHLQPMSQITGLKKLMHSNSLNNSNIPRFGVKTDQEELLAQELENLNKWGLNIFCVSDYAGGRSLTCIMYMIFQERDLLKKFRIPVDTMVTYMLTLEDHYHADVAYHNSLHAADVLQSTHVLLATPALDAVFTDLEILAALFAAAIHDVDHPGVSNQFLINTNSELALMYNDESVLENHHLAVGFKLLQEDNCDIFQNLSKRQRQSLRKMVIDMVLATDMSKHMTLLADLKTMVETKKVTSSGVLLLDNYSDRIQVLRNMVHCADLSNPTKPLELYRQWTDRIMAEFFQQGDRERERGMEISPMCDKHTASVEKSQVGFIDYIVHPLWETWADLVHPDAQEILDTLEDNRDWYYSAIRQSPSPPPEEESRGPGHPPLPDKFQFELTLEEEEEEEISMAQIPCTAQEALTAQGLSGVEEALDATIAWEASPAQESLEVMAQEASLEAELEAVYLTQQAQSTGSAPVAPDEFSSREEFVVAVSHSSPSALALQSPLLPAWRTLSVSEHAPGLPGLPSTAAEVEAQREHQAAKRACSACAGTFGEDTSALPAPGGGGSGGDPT
UniProt Q08499: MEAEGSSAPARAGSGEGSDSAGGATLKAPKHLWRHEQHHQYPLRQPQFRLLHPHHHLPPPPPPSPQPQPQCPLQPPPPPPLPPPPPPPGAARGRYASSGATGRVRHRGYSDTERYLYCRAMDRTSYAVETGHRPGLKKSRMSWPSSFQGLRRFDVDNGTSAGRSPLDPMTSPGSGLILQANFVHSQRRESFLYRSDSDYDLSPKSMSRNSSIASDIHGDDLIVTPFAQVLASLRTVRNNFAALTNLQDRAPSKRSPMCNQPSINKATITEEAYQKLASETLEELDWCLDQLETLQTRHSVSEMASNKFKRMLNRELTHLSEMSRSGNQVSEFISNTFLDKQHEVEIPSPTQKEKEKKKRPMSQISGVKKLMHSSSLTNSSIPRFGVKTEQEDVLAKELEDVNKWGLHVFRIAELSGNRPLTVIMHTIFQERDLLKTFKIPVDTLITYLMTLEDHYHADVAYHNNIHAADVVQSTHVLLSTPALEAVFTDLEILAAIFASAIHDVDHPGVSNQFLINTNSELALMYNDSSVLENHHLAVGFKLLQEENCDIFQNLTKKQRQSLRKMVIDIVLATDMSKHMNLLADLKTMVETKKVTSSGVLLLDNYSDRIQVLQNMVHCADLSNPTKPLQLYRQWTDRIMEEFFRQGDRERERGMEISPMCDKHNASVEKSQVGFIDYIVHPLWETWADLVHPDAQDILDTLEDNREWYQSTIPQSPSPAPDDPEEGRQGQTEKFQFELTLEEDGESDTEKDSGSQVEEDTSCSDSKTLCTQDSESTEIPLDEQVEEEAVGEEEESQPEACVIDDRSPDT
UniProt Q07343: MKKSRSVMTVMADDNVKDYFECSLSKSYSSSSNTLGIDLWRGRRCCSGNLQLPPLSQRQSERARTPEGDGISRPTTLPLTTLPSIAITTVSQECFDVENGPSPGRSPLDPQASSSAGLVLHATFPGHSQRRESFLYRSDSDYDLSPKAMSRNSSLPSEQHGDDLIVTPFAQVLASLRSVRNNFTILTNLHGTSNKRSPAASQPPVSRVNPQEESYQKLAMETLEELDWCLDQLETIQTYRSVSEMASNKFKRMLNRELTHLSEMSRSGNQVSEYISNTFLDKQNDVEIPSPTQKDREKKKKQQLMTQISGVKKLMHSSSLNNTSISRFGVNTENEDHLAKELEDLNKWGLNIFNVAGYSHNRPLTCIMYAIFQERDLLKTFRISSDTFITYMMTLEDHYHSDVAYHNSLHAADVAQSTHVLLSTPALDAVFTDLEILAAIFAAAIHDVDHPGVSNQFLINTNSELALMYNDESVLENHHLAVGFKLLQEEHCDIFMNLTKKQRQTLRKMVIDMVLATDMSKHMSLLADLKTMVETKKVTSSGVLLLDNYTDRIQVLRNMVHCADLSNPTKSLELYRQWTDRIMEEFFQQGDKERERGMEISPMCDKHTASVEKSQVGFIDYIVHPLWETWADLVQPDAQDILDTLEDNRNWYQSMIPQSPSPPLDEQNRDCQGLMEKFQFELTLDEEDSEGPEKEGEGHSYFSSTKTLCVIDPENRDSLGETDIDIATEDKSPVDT
UniProt Q08493: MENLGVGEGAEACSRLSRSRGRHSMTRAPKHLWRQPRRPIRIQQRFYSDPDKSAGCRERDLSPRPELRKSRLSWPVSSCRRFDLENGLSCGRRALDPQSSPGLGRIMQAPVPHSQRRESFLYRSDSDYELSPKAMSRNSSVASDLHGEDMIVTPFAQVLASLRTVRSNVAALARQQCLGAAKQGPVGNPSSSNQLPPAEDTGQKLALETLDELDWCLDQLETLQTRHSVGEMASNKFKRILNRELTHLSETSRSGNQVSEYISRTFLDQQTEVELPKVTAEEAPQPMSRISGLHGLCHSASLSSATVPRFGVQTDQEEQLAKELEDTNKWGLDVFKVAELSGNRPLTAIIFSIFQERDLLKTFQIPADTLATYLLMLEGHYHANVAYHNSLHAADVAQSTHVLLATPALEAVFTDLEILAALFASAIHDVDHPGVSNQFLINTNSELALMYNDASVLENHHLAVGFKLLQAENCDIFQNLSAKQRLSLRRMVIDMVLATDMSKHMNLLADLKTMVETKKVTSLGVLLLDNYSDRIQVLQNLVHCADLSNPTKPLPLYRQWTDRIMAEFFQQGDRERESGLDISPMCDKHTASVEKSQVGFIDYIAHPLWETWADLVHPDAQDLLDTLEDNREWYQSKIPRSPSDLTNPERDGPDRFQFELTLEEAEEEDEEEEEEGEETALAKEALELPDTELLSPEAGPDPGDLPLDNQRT

Molecular target: Phosphodiesterase 4 (Homo sapiens, UniProt P27815+Q08499+Q07343+Q08493)
Assay: Inhibition of Human recombinant PDE4 (Phosphodiesterase 4)
Assay type: protein assay

IC50: > 10 µM
Compound: CN1CC(=O)N2[C@H](c3ccc4c(c3)OCO4)c3[nH]c4ccccc4c3C[C@@H]2C1=O (stereo in doubt; 12a)
